According to patent US12528818B2, “Compositions and methods for inhibition of RAS” (Leidos Biomedical Research, Inc., priority 2021, dated 2026):
Each block holds one compound with its values, some of them ahead of it.

Key:
[1] = target: Avi-KRAS G12C (1-169) GppNHp/RAF1 RBD-3xFLAG (52-151) (Homo sapiens, UniProt P01116, G12C); experiment: biochemical; conditions: Raf1-GppNHp-KRAS G12C disruption, Raf1 RBD-KRAS G12C-GppNHp disruption assay IC50
[2] = target: GppNHp-loaded KRAS4b (amino acids 1-169) G12C/C118S protein (Homo sapiens, UniProt P01116, C118S/G12C); experiment: Covalent cysteine 12 modification by MALDI-TOF MS, GppNHp-loaded KRAS G12C; assay type: biochemical; conditions: 15 minutes reaction time
[3] = target: GDP-loaded KRAS4b (amino acids 1-169) G12C/C118S protein (Homo sapiens, UniProt P01116, C118S/G12C); experiment: Covalent cysteine 12 modification by MALDI-TOF MS, GDP-loaded KRAS G12C; assay type: biochemical; conditions: 15 minutes reaction time
[4] = compounds 94 or before using 5 μM proteins
[5] = compound 95 or later using 1 μM proteins

SMILES: CC#CC(=O)N1CC(Nc2ncnc3c(F)c(-c4ccc(F)c5sc(N)nc45)c(Cl)cc23)C1 [Compound 18]
GppNHp-KRAS G12C percent of modification [2, 4]: D (percent of modification <10%)
GDP-KRAS G12C percent of modification [3, 4]: A (percent of modification ≥70%)

SMILES: C=CC(=O)N1C[C@H](C)N(c2nc(OC[C@@]34CCCN3C[C@H](F)C4)nc3c(F)c(-c4ccc(F)c5sc(N)nc45)c(OC(F)F)cc23)C[C@H]1C [Compound 280]
GppNHp-KRAS G12C percent of modification [2, 5]: C (10%≤percent of modification <50%)
GDP-KRAS G12C percent of modification [3, 5]: A (percent of modification ≥70%)

SMILES: C=CC(=O)N1CCN(c2ncnc3c(F)c(-c4ccc(F)c5sc(N)nc45)c(Cl)cc23)C[C@@H]1CC#N [Compound 12]
GppNHp-KRAS G12C percent of modification [2, 4]: C (10%≤percent of modification <50%)
GDP-KRAS G12C percent of modification [3, 4]: A (percent of modification ≥70%)

SMILES: C=CC(=O)N1CCN(c2nc(OCC34CCCN3C[C@H](OC)C4)nc3c(F)c(-c4ccc(F)c5sc(N)nc45)c(C(F)(F)F)cc23)CC1 (some centres unmarked) [Compound 209]
GppNHp-KRAS G12C percent of modification [2, 5]: C (10%≤percent of modification <50%)
GDP-KRAS G12C percent of modification [3, 5]: A (percent of modification ≥70%)

SMILES: C=CS(=O)(=O)N1CCN(c2ncnc3c(F)c(-c4ccc(F)c5sc(N)nc45)c(Cl)cc23)C[C@@H]1CC#N [Compound 17]
GppNHp-KRAS G12C percent of modification [2, 4]: D (percent of modification <10%)
GDP-KRAS G12C percent of modification [3, 4]: C (10%≤percent of modification <50%)

SMILES: C=CC(=O)N1CCN(c2ncnc3c(O)c(-c4ccc(F)c5sc(N)nc45)c(Cl)cc23)CC1 [Compound 10]
GppNHp-KRAS G12C percent of modification [2, 4]: D (percent of modification <10%)
GDP-KRAS G12C percent of modification [3, 4]: A (percent of modification ≥70%)

SMILES: C=CC(=O)N1CCC(N(C)c2nc(OC[C@@H]3CCCN3CC)nc3c(F)c(-c4ccc(F)c5sc(N)c(C#N)c45)c(C(F)(F)F)cc23)[C@H]1C (some centres unmarked) [Compound 451]
GppNHp-KRAS G12C percent of modification [2, 5]: B (50≤percent of modification <70%)
GDP-KRAS G12C percent of modification [3, 5]: A (percent of modification ≥70%)

SMILES: N#CC[C@H]1CN(c2ncnc3c(F)c(-c4ccc(F)c5sc(N)nc45)c(Cl)cc23)CCN1C(=O)CCl [Compound 13]
GppNHp-KRAS G12C percent of modification [2, 4]: B (50≤percent of modification <70%)
GDP-KRAS G12C percent of modification [3, 4]: A (percent of modification ≥70%)

SMILES: C=CC(=O)N1CCN(c2ncnc3c(F)c(-c4ccc(F)c5sc(N)nc45)c(C4CCC4)cc23)CC1 [Compound 122]
GppNHp-KRAS G12C percent of modification [2, 5]: D (percent of modification <10%)
GDP-KRAS G12C percent of modification [3, 5]: C (10%≤percent of modification <50%)

SMILES: Nc1nc2c(-c3c(Cl)cc4c(NCCNC(=O)CCl)ncnc4c3O)ccc(F)c2s1 [Compound 9]
GppNHp-KRAS G12C percent of modification [2, 4]: D (percent of modification <10%)
GDP-KRAS G12C percent of modification [3, 4]: C (10%≤percent of modification <50%)

SMILES: C=CC(=O)N1CC[C@@H](N(C)c2nc(OCCO)nc3c(F)c(-c4ccc(F)c5sc(N)c(C#N)c45)ccc23)[C@H]1C [Compound 468]
IC50 [1]: 500 to 5000 nM

SMILES: C=CC(=O)N1CC[C@@H](N(C)c2nc(OC[C@@H]3CC4(CC4)CN3C)nc3c(F)c(-c4ccc(F)c5sc(N)c(C#N)c45)ccc23)[C@H]1COC [Compound 433]
IC50 [1]: < 500 nM

SMILES: CC#CC(=O)N1CC[C@@H]2[C@H]1CN2c1nc(OCC23CCCN2CCC3)nc2c(F)c(-c3ccc(F)c4sc(N)nc34)c(-c3ccoc3)cc12 [Compound 120]
GppNHp-KRAS G12C percent of modification [2, 5]: D (percent of modification <10%)
GDP-KRAS G12C percent of modification [3, 5]: B (50≤percent of modification <70%)

SMILES: C=CC(=O)N1CC[C@@H](N(C)c2nc(OC)nc3c(F)c(-c4ccc(F)c5sc(N)c(C#N)c45)ccc23)[C@H]1C [Compound 461]
IC50 [1]: 500 to 5000 nM

SMILES: C=CC(=O)N1CC[C@@H](N(C)c2nc(OCCOC)nc3c(F)c(-c4ccc(F)c5sc(N)c(C#N)c45)ccc23)[C@H]1C [Compound 466]
IC50 [1]: 500 to 5000 nM

SMILES: C=CC(=O)NCCNc1ncnc2c(O)c(-c3ccc(F)c4sc(N)nc34)c(Cl)cc12 [Compound 14]
GppNHp-KRAS G12C percent of modification [2, 4]: D (percent of modification <10%)
GDP-KRAS G12C percent of modification [3, 4]: C (10%≤percent of modification <50%)

SMILES: C=C(F)C(=O)NCCNc1ncnc2c(O)c(-c3ccc(F)c4sc(N)nc34)c(Cl)cc12 [Compound 15]
GppNHp-KRAS G12C percent of modification [2, 4]: D (percent of modification <10%)
GDP-KRAS G12C percent of modification [3, 4]: D (percent of modification <10%)

SMILES: Nc1nc2c(-c3c(Cl)cc4c(NCCNC(=O)CCl)ncnc4c3F)ccc(F)c2s1 [Compound 2]
GppNHp-KRAS G12C percent of modification [2, 4]: C (10%≤percent of modification <50%)
GDP-KRAS G12C percent of modification [3, 4]: A (percent of modification ≥70%)

SMILES: C=CC(=O)N1CCN(c2ncnc3c(F)c(-c4ccc(F)c5sc(N)nc45)c(C4(C#N)CC4)cc23)CC1 [Compound 96]
GppNHp-KRAS G12C percent of modification [2, 5]: D (percent of modification <10%)
GDP-KRAS G12C percent of modification [3, 5]: A (percent of modification ≥70%)

SMILES: C=CS(=O)(=O)N1CCN(c2ncnc3c(F)c(-c4ccc(F)c5sc(N)nc45)c(Cl)cc23)CC1 [Compound 11]
GppNHp-KRAS G12C percent of modification [2, 4]: D (percent of modification <10%)
GDP-KRAS G12C percent of modification [3, 4]: A (percent of modification ≥70%)

SMILES: CC#CC(=O)N1CC[C@@H]2[C@H]1CN2c1nc(OCC23CCCN2CCC3)nc2c(F)c(-c3ccc(F)c4sc(N)nc34)c(Cl)cc12 [Compound 118]
GppNHp-KRAS G12C percent of modification [2, 5]: D (percent of modification <10%)
GDP-KRAS G12C percent of modification [3, 5]: C (10%≤percent of modification <50%)

SMILES: C=CC(=O)NCCNc1ncnc2c(F)c(-c3ccc(F)c4sc(N)nc34)c(Cl)cc12 [Compound 1]
GppNHp-KRAS G12C percent of modification [2, 4]: D (percent of modification <10%)
GDP-KRAS G12C percent of modification [3, 4]: A (percent of modification ≥70%)

SMILES: C=CS(=O)(=O)NCCNc1ncnc2c(F)c(-c3ccc(F)c4sc(N)nc34)c(Cl)cc12 [Compound 3]
GppNHp-KRAS G12C percent of modification [2, 4]: D (percent of modification <10%)
GDP-KRAS G12C percent of modification [3, 4]: A (percent of modification ≥70%)

SMILES: C=C(F)C(=O)N1CC(Nc2ncnc3c(F)c(-c4ccc(F)c5sc(N)nc45)c(Cl)cc23)C1 [Compound 19, 1-[3-[[7-(2-amino-7-fluoro-1,3-benzothiazol-4-yl)-6-chloro-8-fluoro-quinazolin-4-yl]amino]azetidin-1-yl]-2-fluoro-prop-2-en-1-one]
GppNHp-KRAS G12C percent of modification [2, 4]: D (percent of modification <10%)
GDP-KRAS G12C percent of modification [3, 4]: C (10%≤percent of modification <50%)

Continued, values first:

IC50 [1]: < 500 nM
SMILES: C=CC(=O)N1CC[C@@H](N(C)c2nc(OC[C@@H]3CCCN3C)nc3cc(-c4ccc(F)c5sc(N)c(C#N)c45)c(F)cc23)[C@H]1C [Compound 417]

GppNHp-KRAS G12C percent of modification [2, 5]: C (10%≤percent of modification <50%)
GDP-KRAS G12C percent of modification [3, 5]: C (10%≤percent of modification <50%)
SMILES: C=CC(=O)N1CC(N(c2nc(OCC3CCCN3C)nc3c(F)c(-c4ccc(F)c5sc(N)nc45)c(Cl)cc23)C(C)C)C1 (centres unmarked) [Compound 159]

GppNHp-KRAS G12C percent of modification [2, 5]: C (10%≤percent of modification <50%)
GDP-KRAS G12C percent of modification [3, 5]: C (10%≤percent of modification <50%)
SMILES: C=CC(=O)N1CC(Nc2nc(OCC34CCCN3CCC4)nc3c(F)c(-c4ccc(F)c5sc(N)nc45)c(Cl)cc23)[C@H]1C (some centres unmarked) [Compound 213]

IC50 [1]: < 500 nM
SMILES: C=CC(=O)N1CC[C@@H](N(C)c2nc(OC[C@@H]3CCCN3C)nc3c(F)c(-c4ccc(F)c5sc(N)c(C#N)c45)c(Cl)cc23)[C@H]1COC (atropisomer, axis not shown) [Compound 416]

IC50 [1]: < 500 nM
SMILES: C=CC(=O)N1CC[C@@H](N(C)c2nc(OC[C@@H]3CCCN3C)nc3c(F)c(-c4ccc(F)c5sc(N)c(C#N)c45)c(Cl)cc23)[C@H]1C (atropisomer, axis not shown) [Compound 419]

IC50 [1]: 500 to 5000 nM
SMILES: C=CC(=O)N1CC[C@@H](N(C)c2nc(OC[C@@H]3CC4(CC4)CN3C)nc3c(F)c(-c4ccc(F)c5sc(N)c(C#N)c45)c(Cl)cc23)[C@H]1C (atropisomer, axis not shown) [Compound 448]

IC50 [1]: 500 to 5000 nM
SMILES: C=CC(=O)N1CC(N(c2nc(OC[C@@H]3CCCN3C)nc3c(F)c(-c4ccc(F)c5sc(N)nc45)c(Cl)cc23)C(C)C)C1 [Compound 159]

IC50 [1]: 500 to 5000 nM
SMILES: C=CC(=O)N1CCN(c2nc(OC[C@@]34CCCN3C[C@H](OC)C4)nc3c(F)c(-c4ccc(F)c5sc(N)nc45)c(C(F)(F)F)cc23)CC1 [Compound 209]

IC50 [1]: < 500 nM
SMILES: C=CC(=O)N1CC[C@@H](N(C)c2nc(OC[C@@H]3CCCN3C)nc3c(F)c(-c4ccc(F)c5sc(N)c(C#N)c45)ccc23)[C@H]1C [Compound 420]

IC50 [1]: 5000 to 20000 nM
SMILES: C=CC(=O)N1CC(N(C)c2nc(OC[C@@H]3CCCN3C)nc3c(OC4CC4)c(-c4ccc(F)c5sc(N)nc45)c(Cl)cc23)C1 [Compound 184]

IC50 [1]: < 500 nM
SMILES: C=CC(=O)N1CC[C@@H](N(C)c2nc(OC[C@@H]3CCCN3C)nc3cc(-c4ccc(F)c5sc(N)c(C#N)c45)c(F)cc23)[C@H]1COC [Compound 441]

GppNHp-KRAS G12C percent of modification [2, 5]: D (percent of modification <10%)
GDP-KRAS G12C percent of modification [3, 5]: A (percent of modification ≥70%)
SMILES: C=CC(=O)N1CCN(c2nc(OC[C@@H]3CCCN3C)nc3c(F)c(-c4ccc(F)c5sc(N)nc45)c(OC(F)(F)F)cc23)CC1 [Compound 163]
